Common to all, as to type: functional, Cavia porcellus
Assay [1] deals with Heart. The experiment in a line: Heart rate in spontaneously beating Langendorff-perfused guinea pig heart at 10 uM. Details: unit not given here.
Assay [2] deals with Heart. Briefly: Ventricular action potential duration in spontaneously beating Langendorff-perfused guinea pig heart at 10 uM.
Assay [3] relates to Heart. Briefly: Ventricular action potential duration in spontaneously beating Langendorff-perfused guinea pig heart at 1 nM.

The structures appear in SMILES notation.

With `C=C[C@H]1CN2CC[C@H]1C[C@@H]2[C@@H](O)c1ccnc2ccc(OC)cc12` [QUINIDINE], the Activity in assay [1] is listed as 107; in assay [2], 229 ms; in assay [3] it was 158 ms.
